{
  "source": "patent US7317012B2",
  "about": "“Bicyclic heterocycles as cannabinoind-1 receptor modulators” (Bristol-Myers Squibb Company, priority 2005, dated 2008)",
  "origin": "cited, not measured here",
  "conditions": "chronic administration for two weeks",
  "data": [
    {"compound": "Cc1c(C(=O)NN2CCCCC2)nn(-c2ccc(Cl)cc2Cl)c1-c1ccc(I)cc1", "note": "[AM-251]", "values": [
      {"measurement": "adipose tissue mass", "result": "decreased adipose tissue mass"}
    ]}
  ]
}
